Test results taken from ChEMBL document CHEMBL5608193, “Discovery of bivalent small molecule degraders of cyclin-dependent kinase 7 (CDK7)” (Eur J Med Chem, 2024).

Chains of the proteins cited; added tags and fusions are not shown. Lines headed by an entry give the natural chain unless they say otherwise; changes in a name come on top.
UniProt P51946: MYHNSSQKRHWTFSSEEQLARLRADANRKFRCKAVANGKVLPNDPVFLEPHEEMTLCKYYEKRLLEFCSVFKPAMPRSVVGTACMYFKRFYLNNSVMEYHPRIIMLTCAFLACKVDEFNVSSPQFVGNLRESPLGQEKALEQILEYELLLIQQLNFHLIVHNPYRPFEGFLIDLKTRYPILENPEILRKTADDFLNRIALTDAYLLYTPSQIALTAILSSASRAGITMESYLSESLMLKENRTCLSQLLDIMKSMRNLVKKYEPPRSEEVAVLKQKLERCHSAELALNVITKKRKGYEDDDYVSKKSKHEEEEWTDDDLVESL
UniProt P50613: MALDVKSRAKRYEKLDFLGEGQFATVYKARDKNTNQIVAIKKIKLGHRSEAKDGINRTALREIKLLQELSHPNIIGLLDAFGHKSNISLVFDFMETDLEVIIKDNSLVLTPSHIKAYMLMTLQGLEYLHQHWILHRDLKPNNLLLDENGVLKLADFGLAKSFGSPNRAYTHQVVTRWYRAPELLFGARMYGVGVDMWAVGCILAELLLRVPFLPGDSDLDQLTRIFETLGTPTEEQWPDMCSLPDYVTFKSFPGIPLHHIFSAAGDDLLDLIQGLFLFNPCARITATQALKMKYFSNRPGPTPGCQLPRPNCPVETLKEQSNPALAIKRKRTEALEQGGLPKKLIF
UniProt P51948: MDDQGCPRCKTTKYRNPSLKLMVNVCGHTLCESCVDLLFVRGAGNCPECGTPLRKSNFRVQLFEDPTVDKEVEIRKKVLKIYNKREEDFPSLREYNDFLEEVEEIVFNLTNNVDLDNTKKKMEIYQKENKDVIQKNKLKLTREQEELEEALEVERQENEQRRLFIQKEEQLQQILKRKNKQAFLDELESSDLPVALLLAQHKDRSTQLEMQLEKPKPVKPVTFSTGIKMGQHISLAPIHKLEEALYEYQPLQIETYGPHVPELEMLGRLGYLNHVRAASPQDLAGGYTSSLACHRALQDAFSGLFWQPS

Target: CDK7/Cyclin H/MNAT1 (Homo sapiens) (UniProt P51946+P50613+P51948)
Assay: Inhibition of recombinant GST-tagged CDK7/CycH/MAT1 (unknown origin) extracted from baculo-virus infected Sf9 insect cells assessed as kinact/Ki ratio using ATP containing 32P measured after 15 mins by Beckman liquid scintillation counter analysis
Assay type: cell-based

Ratio: 103 /microsec/nM
SMILES: C=CC(=O)Nc1ccc(C(=O)Nc2n[nH]c3c2CN(C(=O)N[C@@H](CN(C)C)c2ccccc2)C3(C)C)cc1
